Reference: ChEMBL document CHEMBL1641598, “Preparation, in vitro screening and molecular modelling of symmetrical 4-tert-butylpyridinium cholinesterase inhibitors--analogues of SAD-128” (2011)
Active and inactive are the calls of the source. The calls are words filed in the database; no cut-off is given here.

Protein sequences, listed by entry. Tags and fused reporters are not part of them. Lines headed by an entry give the natural chain unless they say otherwise; changes in a name come on top.
UniProt P06276, whole entry, looked up: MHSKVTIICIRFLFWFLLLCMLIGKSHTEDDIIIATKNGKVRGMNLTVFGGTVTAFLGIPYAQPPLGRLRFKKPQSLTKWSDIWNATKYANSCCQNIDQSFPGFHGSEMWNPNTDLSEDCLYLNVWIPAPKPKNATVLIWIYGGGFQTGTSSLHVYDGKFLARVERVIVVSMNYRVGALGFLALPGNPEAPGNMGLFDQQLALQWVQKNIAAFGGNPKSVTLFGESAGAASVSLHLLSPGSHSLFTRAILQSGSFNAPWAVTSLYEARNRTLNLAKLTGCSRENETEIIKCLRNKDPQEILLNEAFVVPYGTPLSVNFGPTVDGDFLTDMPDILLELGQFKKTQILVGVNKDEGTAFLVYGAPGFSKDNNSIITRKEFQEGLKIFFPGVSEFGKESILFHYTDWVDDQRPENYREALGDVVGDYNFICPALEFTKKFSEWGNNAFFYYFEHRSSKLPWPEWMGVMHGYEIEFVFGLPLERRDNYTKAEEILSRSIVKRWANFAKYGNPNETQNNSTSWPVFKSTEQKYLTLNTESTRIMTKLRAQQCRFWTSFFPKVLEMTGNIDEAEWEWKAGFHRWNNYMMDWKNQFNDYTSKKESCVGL
UniProt P22303: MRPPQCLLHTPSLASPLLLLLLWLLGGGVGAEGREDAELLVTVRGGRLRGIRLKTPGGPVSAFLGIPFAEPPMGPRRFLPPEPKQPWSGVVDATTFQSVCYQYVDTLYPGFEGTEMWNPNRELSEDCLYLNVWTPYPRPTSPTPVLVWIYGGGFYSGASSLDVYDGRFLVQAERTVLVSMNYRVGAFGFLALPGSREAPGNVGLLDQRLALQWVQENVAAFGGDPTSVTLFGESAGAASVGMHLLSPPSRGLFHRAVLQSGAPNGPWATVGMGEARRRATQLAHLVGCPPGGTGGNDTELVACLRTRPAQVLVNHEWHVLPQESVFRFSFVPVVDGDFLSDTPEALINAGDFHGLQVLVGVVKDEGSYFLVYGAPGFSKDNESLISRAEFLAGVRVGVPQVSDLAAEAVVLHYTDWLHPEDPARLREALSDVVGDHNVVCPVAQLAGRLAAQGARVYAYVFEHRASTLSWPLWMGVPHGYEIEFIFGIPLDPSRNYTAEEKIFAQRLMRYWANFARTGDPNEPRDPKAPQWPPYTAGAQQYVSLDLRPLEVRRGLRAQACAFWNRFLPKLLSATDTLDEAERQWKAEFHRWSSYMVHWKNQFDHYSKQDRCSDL

Key:
[1] = target: Cholinesterases; ACHE & BCHE (Homo sapiens) (UniProt P06276+P22303); assay: Selectivity index, ratio of IC50 for human recombinant BChE to IC50 for human recombinant AChE
[2] = target: Cholinesterase (Homo sapiens) (UniProt P06276); assay: Inhibition of human recombinant BChE at 100 mM to 1 nM

CC(C)(C)c1cc[n+](COC[n+]2ccc(C(C)(C)C)cc2)cc1 gave a Ratio IC50 [1] of 6.2.
Molecule CC(C)(C)c1cc[n+](CC[n+]2ccc(C(C)(C)C)cc2)cc1 has a Ratio IC50 [1] of 1.2.
With CC(C)(C)c1cc[n+](CCC[n+]2ccc(C(C)(C)C)cc2)cc1 the Ratio IC50 [1] was 3.8.
In the case of CC(C)(C)c1cc[n+](Cc2cccc(C[n+]3ccc(C(C)(C)C)cc3)c2)cc1, the Ratio IC50 [1] is reported as 2.7.
CC(C)(C)c1cc[n+](CCCCCCCCC[n+]2ccc(C(C)(C)C)cc2)cc1 showed a Ratio IC50 [1] of 4.1.
With CC(C)(C)c1cc[n+](CCCCC[n+]2ccc(C(C)(C)C)cc2)cc1 the Ratio IC50 [1] was 0.2.
CC(C)(C)c1cc[n+](CCOCC[n+]2ccc(C(C)(C)C)cc2)cc1 showed a Ratio IC50 [1] of 13.
In the case of CC(C)(C)c1cc[n+](Cc2ccc(C[n+]3ccc(C(C)(C)C)cc3)cc2)cc1, the Ratio IC50 [1] is reported as 4.3.
CC(C)(C)c1cc[n+](CCCCCCCC[n+]2ccc(C(C)(C)C)cc2)cc1 showed a Ratio IC50 [1] of 3.2.
CC(C)(C)c1cc[n+](CCCCCC[n+]2ccc(C(C)(C)C)cc2)cc1 showed a Ratio IC50 [1] of 19.
With C[n+]1ccccc1C=NO the inhibition [2] was “inactive”.
Work on CC(C)(C)c1cc[n+](CCCCCCCCCCC[n+]2ccc(C(C)(C)C)cc2)cc1 yielded a Ratio IC50 [1] of 4.2.
With CC(C)(C)c1cc[n+](CCCCCCC[n+]2ccc(C(C)(C)C)cc2)cc1 the Ratio IC50 [1] was 44.
CC(C)(C)c1cc[n+](CCCC[n+]2ccc(C(C)(C)C)cc2)cc1 showed a Ratio IC50 [1] of 1.5.
CC(C)(C)c1cc[n+](C/C=C/C[n+]2ccc(C(C)(C)C)cc2)cc1 was tested, and the Ratio IC50 [1] was 5.6.
Molecule CC(C)(C)c1cc[n+](CCCCCCCCCCCC[n+]2ccc(C(C)(C)C)cc2)cc1 has a Ratio IC50 [1] of 2.7.
With CC(C)(C)c1cc[n+](C[n+]2ccc(C(C)(C)C)cc2)cc1 the Ratio IC50 [1] was 1.7.
In the case of CC(C)(C)c1cc[n+](Cc2ccccc2C[n+]2ccc(C(C)(C)C)cc2)cc1, the Ratio IC50 [1] is reported as 0.2.
C=CC[N+](C)(C)c1ccc(CCC(=O)CCc2ccc([N+](C)(C)CC=C)cc2)cc1 was tested, and the Ratio IC50 [1] was 11800.
CCN(CC)C(C)CN1c2ccccc2Sc2ccccc21 (stereo not drawn) was tested, and the Ratio IC50 [1] was 0.002.
CC(C)(C)c1cc[n+](CCCCCCCCCC[n+]2ccc(C(C)(C)C)cc2)cc1 was tested, and the Ratio IC50 [1] was 5.
With CC(C)(C)c1cc[n+](C/C=C\C[n+]2ccc(C(C)(C)C)cc2)cc1 the Ratio IC50 [1] was 2.2.
Work on CC(C)(C)c1cc[n+](/C=C2\C=CC3=CC/C(=C\[n+]4ccc(C(C)(C)C)cc4)C=C3C2)cc1 yielded a Ratio IC50 [1] of 5.
